From patent US9000185B2, “Cycloalkyl ether compounds and their use as BACE inhibitors” (AstraZeneca AB, priority 2012, dated 2015)

By UniProt entry, the sequences of proteins in these tests, tags left out. Residues count along the entry.
UniProt P56817, 22-460: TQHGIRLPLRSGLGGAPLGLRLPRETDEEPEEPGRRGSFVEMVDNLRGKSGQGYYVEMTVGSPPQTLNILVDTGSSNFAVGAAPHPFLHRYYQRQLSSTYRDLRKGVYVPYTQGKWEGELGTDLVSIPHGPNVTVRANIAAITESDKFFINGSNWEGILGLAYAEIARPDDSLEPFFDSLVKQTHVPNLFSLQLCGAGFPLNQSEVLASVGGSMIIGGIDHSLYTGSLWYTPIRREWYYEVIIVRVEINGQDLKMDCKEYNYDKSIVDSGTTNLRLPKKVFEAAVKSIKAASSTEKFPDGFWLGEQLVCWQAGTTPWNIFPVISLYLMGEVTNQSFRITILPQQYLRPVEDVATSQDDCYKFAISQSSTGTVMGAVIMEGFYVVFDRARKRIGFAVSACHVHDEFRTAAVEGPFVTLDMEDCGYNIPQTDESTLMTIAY

Columns and labels:
[1] = target: T1, human β-Secretase (sBACE-Fc) (Homo sapiens (Human), UniProt P56817); experiment: Diluted TR-FRET assay; type: biochemical; details: diluted TR-FRET assay: 50 times less enzyme, 6.5 h reaction time at r.t.; read-out: IC50 in TR-FRET assay (IC50 from the diluted FRET assay)
Method: (§1) The cDNA for the soluble part of the human β-Secretase (AA 1-AA 460) was cloned using the ASP2-Fc10-1-IRES-GFP-neoK mammalian expression vector. The gene was fused to the Fc domain of IgG1 (affinity tag) and stably cloned into HEK 293 cells.
The enzyme (truncated form) was diluted to 6 μg/mL (stock 1.3 mg/mL) and the TruPoint BACE1 Substrate to 200 nM (stock 120 μM) in reaction buffer (NaAcetate, chaps, triton x-100, EDTA pH4.5). Enzyme and compound in dimethylsulphoxide (final DMSO concentration 5%) was mixed and pre-incubated for 10 minutes at RT. Substrate was then added and the reaction was incubated for 15 minutes at RT. The reaction was stopped with the addition of 0.35 vol Stop solution (NaAcetate, pH 9). The fluorescence of the product was measured on a Victor II plate reader with excitation wavelengths of 340-485 nm and emission wavelengths of 590-615 nm. The final concentration of the enzyme was 2.7 μg/ml; the final concentration of substrate was 100 nM (Km of ˜250 nM). The dimethylsulphoxide control, instead of test compound, defined the 100% activity level and 0% activity was defined by wells lacking enzyme (replaced with reaction buffer) or by a saturating dose of a known inhibitor, 2-amino-6-[3-β-methoxyphenyl)phenyl]-3,6-dimethyl-5H-pyrimidin-4-one. […]

[2] = target: T1, human β-Secretase (sBACE-Fc); experiment: TR-FRET assay; type: biochemical; details: standard TR-FRET assay, 15 minutes reaction at RT
Method: The β-secretase enzyme used in the TR-FRET is prepared as follows:
as §1
The enzyme (truncated form) was diluted to 6 μg/mL (stock 1.3 mg/mL) and the TruPoint BACE1 Substrate to 200 nM (stock 120 μM) in reaction buffer (NaAcetate, chaps, triton x-100, EDTA pH4.5). Enzyme and compound in dimethylsulphoxide (final DMSO concentration 5%) was mixed and pre-incubated for 10 minutes at RT. Substrate was then added and the reaction was incubated for 15 minutes at RT. The reaction was stopped with the addition of 0.35 vol Stop solution (NaAcetate, pH 9). The fluorescence of the product was measured on a Victor II plate reader with excitation wavelengths of 340-485 nm and emission wavelengths of 590-615 nm. The final concentration of the enzyme was 2.7 μg/ml; the final concentration of substrate was 100 nM (Km of ˜250 nM). The dimethylsulphoxide control, instead of test compound, defined the 100% activity level and 0% activity was defined by wells lacking enzyme (replaced with reaction buffer) or by a saturating dose of a known inhibitor, 2-amino-6-[3-β-methoxyphenyl)phenyl]-3,6-dimethyl-5H-pyrimidin-4-one.

## CO[C@H]1CC[C@]2(CC1)Cc1ccc(OCC3CCC3)cc1[C@@]21N=C(C)C(N)=N1 (single isomer, unassigned; isomer 1) [7, isomer 1]
[1]
  IC50: 4.5 nM

## CO[C@H]1CC[C@]2(CC1)Cc1ccc(OCC3CCC3)cc1[C@]21N=C(C)C(N)=N1 (single isomer, unassigned; isomer 2) [7, isomer 2]
[2]
  IC50: > 4900 nM

## CO[C@H]1CC[C@]2(CC1)Cc1ccc(OCC3CCC3)cc1C21N=C(C)C(N)=N1 (stereo partly drawn) [Example 6, (1r,4r)-6′-(Cyclobutylmethoxy)-4-methoxy-5″-methyl-3′H-dispiro[cyclohexane-1,2′-indene-1′,2″-imidazol]-4″-amine]
[1]
  IC50: 6.1 nM
